The test addresses Epidermal growth factor receptor (Homo sapiens, UniProt P00533).

Chains of the proteins cited; added tags and fusions are not shown.
UniProt P00533, whole entry: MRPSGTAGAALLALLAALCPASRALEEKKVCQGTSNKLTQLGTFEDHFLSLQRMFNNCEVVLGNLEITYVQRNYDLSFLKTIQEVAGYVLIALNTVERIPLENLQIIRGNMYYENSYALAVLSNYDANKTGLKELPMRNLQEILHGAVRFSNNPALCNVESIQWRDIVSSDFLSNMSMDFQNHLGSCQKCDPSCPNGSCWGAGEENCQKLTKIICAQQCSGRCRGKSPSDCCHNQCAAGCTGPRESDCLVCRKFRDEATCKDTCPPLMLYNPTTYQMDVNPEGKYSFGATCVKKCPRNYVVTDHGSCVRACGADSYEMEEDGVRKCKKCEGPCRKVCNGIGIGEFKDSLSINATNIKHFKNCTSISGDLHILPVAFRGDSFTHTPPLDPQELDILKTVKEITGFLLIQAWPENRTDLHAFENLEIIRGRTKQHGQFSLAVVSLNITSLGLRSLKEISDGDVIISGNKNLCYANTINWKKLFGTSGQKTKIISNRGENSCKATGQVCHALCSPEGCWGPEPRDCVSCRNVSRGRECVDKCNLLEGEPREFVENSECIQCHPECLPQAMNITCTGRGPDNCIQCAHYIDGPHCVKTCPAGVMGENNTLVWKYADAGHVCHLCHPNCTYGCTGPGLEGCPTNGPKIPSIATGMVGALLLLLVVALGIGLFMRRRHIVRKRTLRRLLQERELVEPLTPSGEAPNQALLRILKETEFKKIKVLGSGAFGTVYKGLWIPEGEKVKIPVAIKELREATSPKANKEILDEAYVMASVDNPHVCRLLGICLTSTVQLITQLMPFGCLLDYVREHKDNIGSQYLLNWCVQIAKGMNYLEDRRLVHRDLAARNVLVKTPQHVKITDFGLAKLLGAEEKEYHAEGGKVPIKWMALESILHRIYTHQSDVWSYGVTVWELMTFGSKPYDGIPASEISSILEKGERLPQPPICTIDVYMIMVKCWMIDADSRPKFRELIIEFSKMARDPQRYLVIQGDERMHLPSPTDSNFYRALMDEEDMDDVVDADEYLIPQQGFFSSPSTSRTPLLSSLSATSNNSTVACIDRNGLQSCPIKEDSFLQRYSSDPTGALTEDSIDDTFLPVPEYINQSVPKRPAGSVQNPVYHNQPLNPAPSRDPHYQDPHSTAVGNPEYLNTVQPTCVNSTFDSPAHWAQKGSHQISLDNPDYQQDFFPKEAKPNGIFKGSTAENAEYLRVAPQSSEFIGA

Molecules are shown by their SMILES.

For orientation: IC50 means the concentration that inhibits the measured activity by half.

As for `COc1cc2ncnc(Nc3cccc(Cl)c3)c2cc1OC` [TYRPHOSTIN AG-1478], inhibition was half-maximal at 5 nM (IC50).

The values are drawn from ChEMBL document CHEMBL1138000, “Novel, potent and selective anilinoquinazoline and anilinopyrimidine inhibitors of p38 MAP kinase” (Bioorg Med Chem Lett, 2004).
